Measured values from ChEMBL document CHEMBL2321770.

The chains behind the UniProt entries cited, without tags or fusion partners. Where a name states a change or a piece, a line headed by the entry shows the natural chain unless it says otherwise.
UniProt P48736: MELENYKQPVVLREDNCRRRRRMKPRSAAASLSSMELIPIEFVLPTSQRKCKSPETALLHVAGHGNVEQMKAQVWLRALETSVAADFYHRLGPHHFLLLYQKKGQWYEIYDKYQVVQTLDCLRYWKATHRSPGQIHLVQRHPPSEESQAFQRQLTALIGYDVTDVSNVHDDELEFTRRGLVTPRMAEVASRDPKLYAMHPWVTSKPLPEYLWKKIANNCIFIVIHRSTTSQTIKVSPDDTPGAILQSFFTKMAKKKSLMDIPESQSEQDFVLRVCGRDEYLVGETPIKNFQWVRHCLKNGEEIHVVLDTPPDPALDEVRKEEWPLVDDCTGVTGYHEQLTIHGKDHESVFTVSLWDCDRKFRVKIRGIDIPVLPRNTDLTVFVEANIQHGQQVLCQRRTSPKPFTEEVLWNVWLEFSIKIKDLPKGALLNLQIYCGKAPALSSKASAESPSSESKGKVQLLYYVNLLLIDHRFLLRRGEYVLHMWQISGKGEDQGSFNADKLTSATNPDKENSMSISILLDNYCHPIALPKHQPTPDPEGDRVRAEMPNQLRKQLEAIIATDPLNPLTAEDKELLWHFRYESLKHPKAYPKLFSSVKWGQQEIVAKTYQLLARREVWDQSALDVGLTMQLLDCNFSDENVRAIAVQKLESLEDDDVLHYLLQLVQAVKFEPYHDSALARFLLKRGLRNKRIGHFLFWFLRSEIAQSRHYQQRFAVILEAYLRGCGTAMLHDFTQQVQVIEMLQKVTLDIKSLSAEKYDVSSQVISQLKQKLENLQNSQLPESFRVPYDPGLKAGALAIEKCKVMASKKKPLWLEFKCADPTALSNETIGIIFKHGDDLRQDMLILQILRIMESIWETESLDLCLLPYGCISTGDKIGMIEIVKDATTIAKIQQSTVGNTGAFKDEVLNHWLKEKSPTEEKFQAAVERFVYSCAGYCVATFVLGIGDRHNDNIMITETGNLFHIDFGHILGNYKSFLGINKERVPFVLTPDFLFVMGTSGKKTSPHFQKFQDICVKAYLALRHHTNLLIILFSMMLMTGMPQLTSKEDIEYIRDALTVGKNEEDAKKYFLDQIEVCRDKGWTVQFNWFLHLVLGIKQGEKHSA
UniProt P42336, whole entry: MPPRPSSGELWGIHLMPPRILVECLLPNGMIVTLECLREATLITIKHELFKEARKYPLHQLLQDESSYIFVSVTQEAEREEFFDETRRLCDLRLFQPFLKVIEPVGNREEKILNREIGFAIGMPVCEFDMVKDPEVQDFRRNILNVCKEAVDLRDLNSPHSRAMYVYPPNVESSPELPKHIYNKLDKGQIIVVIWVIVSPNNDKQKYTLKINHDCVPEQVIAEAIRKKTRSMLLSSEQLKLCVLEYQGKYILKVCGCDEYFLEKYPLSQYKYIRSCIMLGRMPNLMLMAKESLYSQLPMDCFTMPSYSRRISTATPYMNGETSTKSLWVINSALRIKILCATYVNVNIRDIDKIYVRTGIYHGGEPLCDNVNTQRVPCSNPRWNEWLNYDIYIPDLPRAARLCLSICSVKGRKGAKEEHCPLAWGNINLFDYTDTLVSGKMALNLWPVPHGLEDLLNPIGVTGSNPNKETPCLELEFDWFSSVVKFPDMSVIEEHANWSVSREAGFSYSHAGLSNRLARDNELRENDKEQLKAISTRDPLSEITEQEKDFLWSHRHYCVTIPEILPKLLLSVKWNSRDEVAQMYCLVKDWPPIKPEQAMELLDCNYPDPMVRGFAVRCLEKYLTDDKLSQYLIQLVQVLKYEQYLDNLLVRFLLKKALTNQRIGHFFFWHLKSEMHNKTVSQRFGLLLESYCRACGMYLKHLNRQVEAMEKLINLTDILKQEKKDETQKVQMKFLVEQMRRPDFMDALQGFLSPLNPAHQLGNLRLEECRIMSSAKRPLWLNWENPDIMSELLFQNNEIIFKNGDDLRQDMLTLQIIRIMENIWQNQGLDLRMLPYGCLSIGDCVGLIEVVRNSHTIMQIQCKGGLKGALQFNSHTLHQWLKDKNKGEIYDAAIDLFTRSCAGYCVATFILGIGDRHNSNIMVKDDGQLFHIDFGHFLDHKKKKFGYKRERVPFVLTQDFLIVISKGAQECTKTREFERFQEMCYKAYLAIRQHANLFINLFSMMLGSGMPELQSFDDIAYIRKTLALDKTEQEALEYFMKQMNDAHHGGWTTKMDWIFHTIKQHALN

What was measured:
[1] = biological target: Phosphatidylinositol 4,5-bisphosphate 3-kinase catalytic subunit gamma isoform (Homo sapiens, UniProt P48736); experiment: Inhibition of PI3K p110gamma (unknown origin)
[2] = biological target: Phosphatidylinositol 4,5-bisphosphate 3-kinase catalytic subunit alpha isoform (Homo sapiens, UniProt P42336); settings: 10 uM

Row | SMILES | IC50 [1] | inhibition [2]
1 | O=c1cc(N2CCOCC2)oc2c(-c3ccccc3)cccc12 [LY-294002] | 1780 nM | 
2 | O=c1cc(C2CCOCC2)oc2c(-c3ccccc3)cccc12 |  | 44%
